Patent US20230148005A1, “MACROCYCLIC COMPOUNDS AND USES THEREOF” (THESEUS PHARMACEUTICALS, INC., priority 2020, published 2023)

Sequences of proteins named here, by UniProt entry; tags and fusion partners are left off. A change or cut given only in a name is not applied to a line headed by its entry. A line that says so, or that is headed by a name, gives the form on record, which may keep a tag or linker. Residues count along the entry.
UniProt P00533, 25-1210 L858R limits assumed: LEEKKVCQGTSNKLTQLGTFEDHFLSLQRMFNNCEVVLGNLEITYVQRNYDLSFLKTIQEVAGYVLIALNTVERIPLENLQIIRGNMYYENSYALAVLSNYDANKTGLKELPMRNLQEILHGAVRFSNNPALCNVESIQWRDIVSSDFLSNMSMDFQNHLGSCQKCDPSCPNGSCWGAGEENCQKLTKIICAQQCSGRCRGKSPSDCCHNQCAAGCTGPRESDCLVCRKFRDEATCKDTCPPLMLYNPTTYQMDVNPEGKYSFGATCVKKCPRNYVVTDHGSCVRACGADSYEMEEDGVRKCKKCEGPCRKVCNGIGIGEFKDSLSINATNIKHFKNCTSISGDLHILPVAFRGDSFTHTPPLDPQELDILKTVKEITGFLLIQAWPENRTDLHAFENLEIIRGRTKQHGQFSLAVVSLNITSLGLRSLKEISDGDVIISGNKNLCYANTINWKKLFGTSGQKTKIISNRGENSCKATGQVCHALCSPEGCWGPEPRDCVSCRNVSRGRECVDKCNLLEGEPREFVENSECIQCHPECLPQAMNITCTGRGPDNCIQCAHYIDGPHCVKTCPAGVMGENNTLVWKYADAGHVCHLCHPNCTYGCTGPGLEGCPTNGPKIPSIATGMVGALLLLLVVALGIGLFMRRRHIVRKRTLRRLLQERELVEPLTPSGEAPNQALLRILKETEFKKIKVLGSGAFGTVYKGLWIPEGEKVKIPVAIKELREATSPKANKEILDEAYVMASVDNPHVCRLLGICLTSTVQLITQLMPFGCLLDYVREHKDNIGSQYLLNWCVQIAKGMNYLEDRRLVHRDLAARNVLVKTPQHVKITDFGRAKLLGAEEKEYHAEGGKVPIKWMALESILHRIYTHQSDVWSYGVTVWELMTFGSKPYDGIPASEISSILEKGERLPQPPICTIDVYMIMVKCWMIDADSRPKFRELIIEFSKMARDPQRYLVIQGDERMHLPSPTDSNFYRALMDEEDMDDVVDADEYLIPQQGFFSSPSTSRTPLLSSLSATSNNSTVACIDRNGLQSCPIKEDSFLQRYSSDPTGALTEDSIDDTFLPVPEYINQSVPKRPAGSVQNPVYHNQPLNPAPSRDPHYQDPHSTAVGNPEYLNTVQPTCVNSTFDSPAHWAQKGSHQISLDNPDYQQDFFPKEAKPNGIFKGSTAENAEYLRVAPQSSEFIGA
UniProt P00533, 25-1210 T790M/L858R limits assumed: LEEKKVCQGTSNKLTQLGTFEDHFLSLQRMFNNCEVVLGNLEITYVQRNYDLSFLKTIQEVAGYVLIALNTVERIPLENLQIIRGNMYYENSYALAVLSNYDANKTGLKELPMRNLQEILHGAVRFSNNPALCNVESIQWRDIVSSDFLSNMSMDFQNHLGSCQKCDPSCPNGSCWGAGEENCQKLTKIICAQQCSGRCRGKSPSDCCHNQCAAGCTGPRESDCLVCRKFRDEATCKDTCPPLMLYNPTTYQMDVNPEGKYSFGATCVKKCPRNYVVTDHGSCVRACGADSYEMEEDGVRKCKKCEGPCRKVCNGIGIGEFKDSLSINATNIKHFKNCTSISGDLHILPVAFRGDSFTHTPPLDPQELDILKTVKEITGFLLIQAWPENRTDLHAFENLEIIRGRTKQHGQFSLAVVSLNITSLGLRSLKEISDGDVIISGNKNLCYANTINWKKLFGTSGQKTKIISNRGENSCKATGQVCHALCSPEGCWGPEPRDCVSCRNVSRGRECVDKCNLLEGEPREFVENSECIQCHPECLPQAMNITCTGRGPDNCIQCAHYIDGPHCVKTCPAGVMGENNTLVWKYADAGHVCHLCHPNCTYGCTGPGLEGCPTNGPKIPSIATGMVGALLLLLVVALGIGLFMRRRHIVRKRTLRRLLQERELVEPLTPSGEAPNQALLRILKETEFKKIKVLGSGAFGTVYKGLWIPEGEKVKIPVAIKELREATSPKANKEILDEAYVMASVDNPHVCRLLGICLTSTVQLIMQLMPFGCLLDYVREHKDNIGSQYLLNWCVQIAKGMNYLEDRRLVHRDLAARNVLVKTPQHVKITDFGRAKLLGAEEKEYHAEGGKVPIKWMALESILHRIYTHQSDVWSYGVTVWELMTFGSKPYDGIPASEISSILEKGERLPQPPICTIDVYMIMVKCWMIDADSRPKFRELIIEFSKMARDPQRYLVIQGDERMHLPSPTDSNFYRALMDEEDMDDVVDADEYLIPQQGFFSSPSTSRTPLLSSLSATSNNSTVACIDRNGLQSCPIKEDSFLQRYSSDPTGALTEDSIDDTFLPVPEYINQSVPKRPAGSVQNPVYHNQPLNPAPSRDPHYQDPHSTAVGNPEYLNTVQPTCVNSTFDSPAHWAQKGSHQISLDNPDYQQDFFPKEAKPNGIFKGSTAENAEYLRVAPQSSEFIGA
UniProt P00533, 25-1210 T790M/C797S/L858R limits assumed: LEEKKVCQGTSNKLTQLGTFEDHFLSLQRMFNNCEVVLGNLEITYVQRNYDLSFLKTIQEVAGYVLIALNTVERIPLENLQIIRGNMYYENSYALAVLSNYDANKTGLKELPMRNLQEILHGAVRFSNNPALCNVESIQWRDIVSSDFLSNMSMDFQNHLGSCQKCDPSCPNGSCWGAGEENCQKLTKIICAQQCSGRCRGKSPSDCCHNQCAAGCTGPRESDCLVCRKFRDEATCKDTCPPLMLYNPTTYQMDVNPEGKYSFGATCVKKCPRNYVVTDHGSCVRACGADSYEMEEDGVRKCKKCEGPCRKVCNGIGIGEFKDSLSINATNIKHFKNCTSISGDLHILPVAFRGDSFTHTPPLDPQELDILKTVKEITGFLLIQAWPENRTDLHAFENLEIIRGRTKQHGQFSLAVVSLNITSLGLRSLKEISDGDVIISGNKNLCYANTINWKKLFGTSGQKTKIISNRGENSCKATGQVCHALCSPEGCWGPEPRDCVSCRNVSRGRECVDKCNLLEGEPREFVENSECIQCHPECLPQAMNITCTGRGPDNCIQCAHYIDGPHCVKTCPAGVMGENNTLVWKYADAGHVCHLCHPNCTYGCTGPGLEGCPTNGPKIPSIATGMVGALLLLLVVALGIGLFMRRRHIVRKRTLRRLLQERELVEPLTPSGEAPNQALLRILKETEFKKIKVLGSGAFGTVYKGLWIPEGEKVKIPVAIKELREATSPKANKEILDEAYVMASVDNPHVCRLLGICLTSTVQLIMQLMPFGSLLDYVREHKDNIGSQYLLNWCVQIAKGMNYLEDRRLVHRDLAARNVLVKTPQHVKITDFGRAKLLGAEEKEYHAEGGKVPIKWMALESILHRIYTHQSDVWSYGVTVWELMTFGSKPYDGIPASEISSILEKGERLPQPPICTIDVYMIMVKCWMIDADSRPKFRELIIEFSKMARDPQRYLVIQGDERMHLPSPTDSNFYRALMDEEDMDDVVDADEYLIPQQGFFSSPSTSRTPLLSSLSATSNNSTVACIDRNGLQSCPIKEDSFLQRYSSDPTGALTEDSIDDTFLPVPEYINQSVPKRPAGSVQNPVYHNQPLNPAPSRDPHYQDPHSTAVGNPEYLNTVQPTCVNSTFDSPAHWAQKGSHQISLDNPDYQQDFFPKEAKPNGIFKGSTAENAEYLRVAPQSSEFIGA
UniProt P00533, with tags, fused parts or gaps C797S/DEL746-750: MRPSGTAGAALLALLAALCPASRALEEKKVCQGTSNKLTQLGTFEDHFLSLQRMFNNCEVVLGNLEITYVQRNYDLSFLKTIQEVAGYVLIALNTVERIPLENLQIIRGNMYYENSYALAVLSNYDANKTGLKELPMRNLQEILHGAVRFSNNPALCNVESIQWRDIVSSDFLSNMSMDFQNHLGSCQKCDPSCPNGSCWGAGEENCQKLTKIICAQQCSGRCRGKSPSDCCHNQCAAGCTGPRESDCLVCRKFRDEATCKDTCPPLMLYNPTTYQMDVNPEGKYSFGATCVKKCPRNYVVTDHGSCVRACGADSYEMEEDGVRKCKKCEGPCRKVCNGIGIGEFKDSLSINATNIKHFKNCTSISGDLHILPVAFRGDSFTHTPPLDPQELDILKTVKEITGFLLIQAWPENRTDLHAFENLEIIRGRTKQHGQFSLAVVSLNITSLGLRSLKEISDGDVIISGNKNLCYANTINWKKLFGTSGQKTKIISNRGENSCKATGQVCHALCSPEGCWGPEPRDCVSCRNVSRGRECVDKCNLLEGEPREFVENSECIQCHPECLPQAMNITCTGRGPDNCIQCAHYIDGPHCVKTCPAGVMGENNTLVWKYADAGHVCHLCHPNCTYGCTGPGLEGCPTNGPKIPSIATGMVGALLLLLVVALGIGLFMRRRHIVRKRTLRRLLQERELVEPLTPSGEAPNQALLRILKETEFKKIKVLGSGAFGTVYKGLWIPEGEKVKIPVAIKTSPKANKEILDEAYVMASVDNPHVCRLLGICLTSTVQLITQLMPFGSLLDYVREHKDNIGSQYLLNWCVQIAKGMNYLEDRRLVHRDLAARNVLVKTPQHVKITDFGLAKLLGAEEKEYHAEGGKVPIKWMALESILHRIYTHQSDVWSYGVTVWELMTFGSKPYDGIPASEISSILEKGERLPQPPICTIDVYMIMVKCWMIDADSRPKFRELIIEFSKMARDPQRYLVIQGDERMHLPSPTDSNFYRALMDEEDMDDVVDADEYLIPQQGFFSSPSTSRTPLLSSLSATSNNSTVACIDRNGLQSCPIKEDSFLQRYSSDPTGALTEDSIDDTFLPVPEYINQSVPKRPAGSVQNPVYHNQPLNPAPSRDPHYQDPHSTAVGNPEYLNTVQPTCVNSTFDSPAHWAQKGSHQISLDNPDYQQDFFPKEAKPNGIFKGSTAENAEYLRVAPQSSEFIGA
UniProt P00533, with tags, fused parts or gaps DEL746-750/T790M: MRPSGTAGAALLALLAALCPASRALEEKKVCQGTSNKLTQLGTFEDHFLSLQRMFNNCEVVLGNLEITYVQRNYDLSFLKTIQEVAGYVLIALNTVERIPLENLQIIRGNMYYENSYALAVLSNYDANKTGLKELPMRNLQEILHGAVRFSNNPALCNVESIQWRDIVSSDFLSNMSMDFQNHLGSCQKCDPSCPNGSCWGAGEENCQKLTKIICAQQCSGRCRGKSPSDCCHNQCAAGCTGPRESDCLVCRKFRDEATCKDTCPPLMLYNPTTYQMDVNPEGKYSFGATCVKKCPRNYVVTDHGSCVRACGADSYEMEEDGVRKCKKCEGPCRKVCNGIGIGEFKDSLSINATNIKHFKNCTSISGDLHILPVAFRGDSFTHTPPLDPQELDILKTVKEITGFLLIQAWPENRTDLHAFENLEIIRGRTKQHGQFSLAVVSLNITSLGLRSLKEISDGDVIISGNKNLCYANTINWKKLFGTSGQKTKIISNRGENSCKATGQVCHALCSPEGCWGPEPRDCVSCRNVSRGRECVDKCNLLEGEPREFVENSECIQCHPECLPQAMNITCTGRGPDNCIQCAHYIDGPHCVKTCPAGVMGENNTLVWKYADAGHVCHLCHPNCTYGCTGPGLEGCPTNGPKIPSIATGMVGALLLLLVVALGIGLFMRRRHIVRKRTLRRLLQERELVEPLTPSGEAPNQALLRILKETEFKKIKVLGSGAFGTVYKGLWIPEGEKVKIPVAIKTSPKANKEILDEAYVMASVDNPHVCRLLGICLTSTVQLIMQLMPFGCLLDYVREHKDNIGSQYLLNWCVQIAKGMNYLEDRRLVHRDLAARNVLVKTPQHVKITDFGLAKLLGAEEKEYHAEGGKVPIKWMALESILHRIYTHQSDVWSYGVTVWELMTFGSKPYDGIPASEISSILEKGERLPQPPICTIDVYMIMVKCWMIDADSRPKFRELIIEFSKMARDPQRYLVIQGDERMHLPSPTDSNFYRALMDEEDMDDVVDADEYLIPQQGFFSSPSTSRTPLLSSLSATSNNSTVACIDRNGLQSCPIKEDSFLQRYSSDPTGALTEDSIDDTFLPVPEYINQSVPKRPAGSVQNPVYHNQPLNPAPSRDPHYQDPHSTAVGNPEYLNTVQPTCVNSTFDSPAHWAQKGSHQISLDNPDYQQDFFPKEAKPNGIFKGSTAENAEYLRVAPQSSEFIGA

Key:
Ba/F3 Parental = assay: Ba/F3 viability assay (CellTiter-Glo), parental; conditions: read-out: BaF3 parental IC50, anti-proliferation
Source text: (§1) Inhibition of cell proliferation can be studied using Ba/F3 viability assays, including the Promega CellTiter-Glo cell viability assay. This assay can be used to study the effect of compounds described herein in the following assays: (1) Ba/F3 Parental; (2) Ba/F3 EGFR-Del19/T790M; (3); Ba/F3 EGFR-Del19/C797S; and (4) Ba/F3 EGFR-Del19/T790M/C797S.

Ba/F3 EGFR-Del19/T790M = Ba/F3 EGFR-Del19/T790M (Homo sapiens, UniProt P00533, T790M, cells depend on it, form not given); assay: Ba/F3 viability assay (CellTiter-Glo), DT; conditions: read-out: BaF3 DT IC50, anti-proliferation
Source text: as §1

[1] = target: Ba/F3 EGFR-Del19/T790M/C797S (Homo sapiens, UniProt P00533, T790M/C797S, cells depend on it, form not given); assay: Ba/F3 viability assay (CellTiter-Glo), DTC; conditions: read-out: BaF3 DTC IC50, anti-proliferation
Source text: as §1

EGFR^L858R/T790M/C^797S = EGFR^L858R/T790M/C^797S (Homo sapiens, UniProt P00533, C797S/L858R/T790M); assay: in vitro kinase assay (HTRF KinEASE-TK kit), LTC; conditions: read-out: kinase LTC IC50, kinase inhibition
Source text: (§2) Assays using an in vitro kinase assay kit (HTRF KinEASE-TK kit) can be used to study the inhibitory activity of compounds described herein with respect to EGFR mutants such as EGFR^L858R, EGFR^L58R/T790M, and EGFR^L858R/T790M/C^797S.

EGFR^L58R/T790M = EGFR^L58R/T790M (Homo sapiens, UniProt P00533, L858R/T790M); assay: in vitro kinase assay (HTRF KinEASE-TK kit), LT; conditions: read-out: kinase LT IC50, kinase inhibition
Source text: as §2

EGFR^L858R = EGFR^L858R (Homo sapiens, UniProt P00533, L858R); assay: in vitro kinase assay (HTRF KinEASE-TK kit), L; conditions: read-out: kinase L IC50, kinase inhibition
Source text: as §2

Ba/F3 EGFR-Del19/C797S = Ba/F3 EGFR-Del19/C797S (Homo sapiens, UniProt P00533, C797S, cells depend on it, form not given); assay: Ba/F3 viability assay (CellTiter-Glo), DC; conditions: read-out: BaF3 DC IC50, anti-proliferation
Source text: as §1

Structure (SMILES) | IC50 (EGFR^L858R/T790M/C^797S) [nM] | IC50 (EGFR^L58R/T790M) [nM] | IC50 (EGFR^L858R) [nM] | IC50 (Ba/F3 Parental) [nM] | GI50 (Ba/F3 EGFR-Del19/T790M) [nM] | GI50 [1] [nM] | GI50 (Ba/F3 EGFR-Del19/C797S) [nM]
CN(C)C1CCC(Oc2nn3c4cc(ncc24)Nc2ccnc(n2)-c2cnn(C)c2OCCC3)CC1 (stereo not shown) | 10 to 100 | < 10 | 100 to 1000 | > 1000 | 100 to 1000 | 100 to 1000 | 100 to 1000
C[C@H]1CCOc2c(cnn2C)-c2nccc(n2)Nc2cc3c(cn2)c(-c2ccccc2)nn31 | < 10 | < 10 | 10 to 100 | 100 to 1000 | 10 to 100 | 10 to 100 | 10 to 100
CNC(=O)C1CCCN1c1nn2c3cc(ncc13)Nc1ccnc(n1)-c1cnn(C)c1OCCC2 (stereo not shown) | 100 to 1000 | 10 to 100 | > 1000 | > 1000 | > 1000 | > 1000 | > 1000

Now from value to molecule, other results behind:

IC50 (EGFR^L858R/T790M/C^797S) [nM] | IC50 (EGFR^L58R/T790M) [nM] | IC50 (EGFR^L858R) [nM] | Structure (SMILES) | IC50 (Ba/F3 Parental) [nM] | GI50 (Ba/F3 EGFR-Del19/T790M) [nM] | GI50 [1] [nM] | GI50 (Ba/F3 EGFR-Del19/C797S) [nM]
< 10 | < 10 | 10 to 100 | CC1CCOc2c(cnn2C)-c2nccc(n2)Nc2ncc3c(N4CCC4)nn1c3n2 (stereo not shown) | 100 to 1000 | 10 to 100 | 10 to 100 | 10 to 100
< 10 | < 10 | 10 to 100 | CCn1ncc2c1OCCCC(C)n1nc(N3CCC3)c3cnc(cc31)Nc1ccnc-2n1 (stereo not shown) | > 1000 | 10 to 100 | 10 to 100 | 10 to 100
< 10 | < 10 | 10 to 100 | C[C@H]1CCOc2c(cnn2C)-c2nccc(n2)Nc2cc3c(cn2)c(-c2ccn(C)n2)nn31 | > 1000 | 10 to 100 | 10 to 100 | 10 to 100
< 10 | < 10 | < 10 | C[C@H]1CCCOc2c(cnn2C)-c2nccc(n2)Nc2cc3c(cn2)c(N2CCCC2)nn31 | 100 to 1000 | < 10 | < 10 | < 10
